## AlphaSeq binding of Ab-14 light chain variants to a spike HR2 peptide

Source: Engelhart et al. 2022 (doi:10.1038/s41597-022-01779-4), MIT Lincoln Laboratory and A-Alpha Bio; data file from the FLAb repository.

Binding partner: SARS-CoV-2 spike HR2 peptide, sequence PDVDLGDISGINAS.

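The starting antibody came from a phage panning campaign against this peptide. Variants in AAYL50 differ from the parent at up to three CDR positions; double and triple changes were sampled at random. In AlphaSeq, yeast of one mating type display the scFv and yeast of the other type display the target. The frequency of each diploid, read from paired DNA barcodes, reflects how well the two displayed proteins bind. Scores were corrected for input abundance and mapped to Kd with protein pairs of known affinity run in the same pool. There are three technical replicates.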

Each scFv is VH, a (GGGGS)3 linker, VL, as in the parent Ab-14, and differs from it in the CDRs of the light chain only.
VH: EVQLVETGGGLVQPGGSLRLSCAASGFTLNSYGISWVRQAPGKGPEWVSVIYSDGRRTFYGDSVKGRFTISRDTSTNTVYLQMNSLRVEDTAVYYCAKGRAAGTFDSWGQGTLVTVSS
VL: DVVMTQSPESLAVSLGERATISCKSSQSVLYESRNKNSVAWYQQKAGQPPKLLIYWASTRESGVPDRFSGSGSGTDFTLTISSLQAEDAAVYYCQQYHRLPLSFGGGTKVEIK

Substitutions are numbered in sequence along the VL above, starting at 1 (not Kabat).
All variants listed here change Y31 of the VL, counted from its first residue.
Scale: log10 of Kd in nM, estimated from mating counts; low values are strong binders.
A mean of the replicates is given; it leaves out those without a signal.
An entry "nd" has no value in the source: the pair was not observed among the diploids in that replicate. This suggests poor binding but is not conclusive.
As a blank, each scFv also met three strains without target: over library AAYL50, 18% of these pairings were detected, typically at 4.19 and seldom below 2.99.
Parent in this assay: reference entry 0.65, copy in this library 1.68.

With Y31H/N37F/T59H the result was 1.27, 1.27, 1.19 (mean 1.24). The variant S26N/Y31V/S58C gave 2.60, nd, nd. The variant Q27Y/Y31K/Q95H showed 4.95, 4.06, nd (mean 4.50). With S25E/Y31W/Q95C the result was 3.90, nd, nd. The variant Y31C gave 2.04, 1.74, 2.04 (mean 1.94). With K24T/Y31R/A40F the result was nd, nd, nd. The variant Y31H/L100I/L102M gave 1.41, 1.49, 1.18 (mean 1.36).

The variant V29L/Y31M/L100M gave 0.27, 0.61, 0.50 (mean 0.46). For Y31P/K36N, the assay gave 1.12, 1.02, 1.12 (mean 1.09). The variant S26T/Q27C/Y31N gave 1.91, 2.29, 2.09 (mean 2.10). The variant Y31L/R34F showed nd, nd, nd. The variant Y31E/K36Q/L102W showed 2.09, 1.70, 2.16 (mean 1.98). The variant Y31P/A57D/Y97C showed nd, nd, nd. With Y31T/E61V/P101T the result was nd, 4.12, nd.

With Y31C/E32G/S103A the result was 1.61, 1.59, 2.07 (mean 1.75). The variant Y31V/E32Y/W56K gave nd, nd, nd. The variant K24F/Y31P/R99S showed 1.44, 1.59, 1.77 (mean 1.60). The variant S28N/Y31K/Q96P gave 0.64, 1.02, 0.80 (mean 0.82). For V29W/Y31D, the assay gave 0.23, 0.46, 0.33 (mean 0.34). The variant Y31W/A40P/R60H gave nd, nd, nd. With Y31S/T59I/E61H the result was 1.04, 1.17, 1.11 (mean 1.11).

With Y31N/E32C/L102K the result was 1.47, 1.56, 1.66 (mean 1.56). With Y31H/N35L/L100Y the result was 0.43, 0.95, 0.61 (mean 0.66). With L30P/Y31R/R99H the result was 1.47, 2.09, 1.23 (mean 1.59). For Y31W/E61N, the assay gave 4.79, nd, nd. The variant Y31H/E32C/V39H gave nd, nd, nd. For Y31S, the assay gave nd, nd, nd. The variant Y31C/S38C/H98T gave 1.96, 2.63, 1.79 (mean 2.13).

The variant S28W/Y31C/W56L gave 3.10, 2.12, 3.11 (mean 2.78). With Y31G/S103G the result was 0.86, 0.90, 1.03 (mean 0.93). The variant Y31C/E32I/S103P gave 2.52, 2.23, 2.74 (mean 2.49). The variant Y31N/S33P/S38V showed nd, nd, nd. For S28I/Y31H/S33G, the assay gave 1.65, 1.78, 1.93 (mean 1.79). The variant Y31L gave 0.82, 1.01, 0.95 (mean 0.92). The variant Y31A/R34H/Q95R showed nd, 2.99, nd.

The variant Y31W/S58D/S103D showed 0.70, 0.88, 0.68 (mean 0.76). The variant Y31F/N35G/S38F showed nd, nd, nd. The variant Y31Q/E61L showed 0.84, 0.98, 0.94 (mean 0.92). The variant Q27P/Y31A/H98I gave 3.86, 3.05, 3.96 (mean 3.62). For Y31E, the assay gave 0.23, 0.46, 0.42 (mean 0.37). For Y31F/A40T/P101T, the assay gave 4.61, nd, 5.51 (mean 5.06). With Y31I/S58Y/E61L the result was 3.56, 2.69, 4.17 (mean 3.47).

For Y31T/S38V/L100W, the assay gave nd, nd, nd. The variant Y31H/E32C/Q95R showed 3.45, nd, nd. For Y31L/S33D/R34Q, the assay gave 0.64, 0.80, 0.74 (mean 0.73). The variant Y31L/S33I/Q96G gave 3.73, 4.91, nd (mean 4.32). The variant Y31P/Q95G showed nd, nd, 2.89. The variant Y31S/Q96G showed nd, 2.95, nd. With Y31C/E32Y the result was 2.39, 3.81, 3.06 (mean 3.09).

With Y31K/E32N/W56E the result was -0.43, 0.07, -0.24 (mean -0.20). The variant Q27M/Y31H/S103N showed 0.84, 1.06, 1.14 (mean 1.01). The variant V29A/Y31H/Q95Y gave 1.04, 1.41, 1.17 (mean 1.21).

Excerpt, the final 8 entries:

{"changes": "Y31L/S33D/R34Q", "replicates, log10 nM": "0.64, 0.80, 0.74", "mean log10 Kd (nM)": "0.73"}
{"changes": "Y31L/S33I/Q96G", "replicates, log10 nM": "3.73, 4.91, nd", "mean log10 Kd (nM)": "4.32"}
{"changes": "Y31P/Q95G", "replicates, log10 nM": "nd, nd, 2.89", "mean log10 Kd (nM)": "2.89"}
{"changes": "Y31S/Q96G", "replicates, log10 nM": "nd, 2.95, nd", "mean log10 Kd (nM)": "2.95"}
{"changes": "Y31C/E32Y", "replicates, log10 nM": "2.39, 3.81, 3.06", "mean log10 Kd (nM)": "3.09"}
{"changes": "Y31K/E32N/W56E", "replicates, log10 nM": "-0.43, 0.07, -0.24", "mean log10 Kd (nM)": "-0.20"}
{"changes": "Q27M/Y31H/S103N", "replicates, log10 nM": "0.84, 1.06, 1.14", "mean log10 Kd (nM)": "1.01"}
{"changes": "V29A/Y31H/Q95Y", "replicates, log10 nM": "1.04, 1.41, 1.17", "mean log10 Kd (nM)": "1.21"}